Source: patent US20250059185A1 (Hoffmann-La Roche Inc., priority 2021, published 2025)

Amino acid sequences for entries named in this document (tags omitted).
UniProt Q99685, whole entry, species assumed: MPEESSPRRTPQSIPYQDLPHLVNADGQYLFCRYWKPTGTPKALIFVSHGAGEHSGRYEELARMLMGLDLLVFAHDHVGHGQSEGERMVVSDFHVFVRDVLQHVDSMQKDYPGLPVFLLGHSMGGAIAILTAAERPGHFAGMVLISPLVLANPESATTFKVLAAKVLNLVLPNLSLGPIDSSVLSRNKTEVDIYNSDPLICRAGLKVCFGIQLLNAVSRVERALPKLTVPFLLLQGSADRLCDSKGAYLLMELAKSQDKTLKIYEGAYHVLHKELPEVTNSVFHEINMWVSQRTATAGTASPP

Target: MAGL (Homo sapiens (Human), UniProt Q99685)
Assay: 2-AG assay (MAGL inhibitory activity, hydrolysis of 2-arachidonoylglycerol followed by mass spectrometry)
Type: biochemical
Conditions: 50 pM MAGL protein, 15 min pre-incubation, 30 min incubation at RT
Excerpt: Compounds of formula (II) were profiled for MAGL inhibitory activity by determining the enzymatic activity by following the hydrolysis of the natural substrate 2-arachidonoylglycerol (2-AG) resulting in arachidonic acid, which can be followed by mass spectrometry. This assay is hereinafter abbreviated “2-AG assay”.
Compounds of formula (II) were profiled for MAGL inhibitory activity by determining the enzymatic activity by following the hydrolysis of the natural substrate 2-arachidonoylglycerol (2-AG) resulting in arachidonic acid, which can be followed by mass spectrometry. This assay is hereinafter abbreviated “2-AG assay”. The 2-AG assay was carried out in 384 well polypropylene assay plates. Compound dilutions were made in 100% DMSO in a polypropylene plate in 3-fold dilution steps to give a final concentration range in the assay from 12.5 μM to 0.8 pM. Compound dilutions were added to MAGL protein in assay buffer (50 mM TRIS, 1 mM EDTA, 0.01% (v/v) Tween-20, 2.5% (v/v) DMSO). After shaking, the plate was incubated for 15 min at RT. To start the reaction, 2-arachidonoylglycerol in assay buffer was added. The final concentrations in the assay was 50 pM for MAGL protein and 8 pM 2-arachidonoylglyerol. […] The activity of the compounds was calculated based on the ratio of intensities [arachidonic acid/d8-arachidonic acid].

Substance	IC50 [nM]
4-[2-chloro-5-fluoro-3-[(7R)-3-[3-fluoro-5-[[methyl(dioxo)-λ^6-phosphanyl]methyl]phenyl]-2,7-dimethyl-5,7-dihydro-4H-pyrazolo[3,4-c]pyridine-6-carbonyl]phenyl]-1H-pyrrole-2-carbonitrile [Example 83]	4450
4-[2-chloro-5-fluoro-3-[(7S)-3-[3-fluoro-5-[[methyl(dioxo)-λ^6-phosphanyl]methyl]phenyl]-2,7-dimethyl-5,7-dihydro-4H-pyrazolo[3,4-c]pyridine-6-carbonyl]phenyl]-1H-pyrrole-2-carbonitrile [Example 82]	98.6
